# CycPeptMPDB entries from one study

Values of Townsend et al. 2020, doi:10.26434/chemrxiv.13335941.v1, as listed in CycPeptMPDB.

PAMPA measures passive passage through an artificial lipid membrane. P is given in units of 10^-6 cm/s (from log10 values with two decimals); larger means faster passage.

compound	PAMPA (10^-6 cm/s)
CC(C)C[C@H]1NC(=O)[C@@H](C)N(C)C(=O)[C@H](Cc2ccccc2)NC(=O)CN(Cc2ccccc2)C(=O)[C@@H]2CCCN2C(=O)C[C@H](Cc2ccccc2)NC1=O	1.3
CC(C)C[C@@H]1NC(=O)[C@H](C)N(C)C(=O)[C@H]2CCCN2C(=O)[C@H](Cc2ccccc2)NC(=O)[C@@H](CC(C)C)NC(=O)[C@@H]2CCCN2C(=O)[C@@H](CC(C)C)N(C)C1=O	4.5
CC(C)C[C@@H]1C(=O)N(Cc2ccccc2)CC(=O)N2CCC[C@@H]2C(=O)N[C@H](CC(C)C)C(=O)N[C@@H](Cc2ccccc2)C(=O)N2CCC[C@@H]2C(=O)N(C)[C@H](C)C(=O)N1C	2.5
CCCN1CC(=O)N(C)[C@@H](CC(C)C)C(=O)N(C)[C@H](CC(C)C)C(=O)N2CCC[C@@H]2C(=O)N(C)[C@@H](CC(C)C)C(=O)N[C@@H](Cc2ccccc2)C(=O)N2CCC[C@@H]2C1=O	7.8
CC(C)C[C@@H]1NC(=O)[C@H](CC(C)C)N(C)C(=O)[C@H](C)N(C)C(=O)[C@H](Cc2ccccc2)NC(=O)CN(Cc2ccccc2)C(=O)[C@H]2CCCN2C1=O	5.9
CCCN1CC(=O)N[C@@H](CC(C)C)C(=O)N[C@H](CC(C)C)C(=O)N2CCC[C@H]2C(=O)N(C)[C@@H](CC(C)C)C(=O)N[C@@H](Cc2ccccc2)C(=O)N2CCC[C@H]2C1=O	5.8
CC(C)C[C@H]1NC(=O)[C@@H](C)N(C)C(=O)[C@H](Cc2ccccc2)NC(=O)[C@@H](CC(C)C)NC(=O)[C@H]2CCCN2C(=O)[C@@H](CC(C)C)NC1=O	5.9
CC(C)C[C@H]1NC(=O)[C@H](CC(C)C)N(C)C(=O)[C@H](C)N(C)C(=O)[C@H]2CCCN2C(=O)[C@H](Cc2ccccc2)NC(=O)CN(Cc2ccccc2)C(=O)[C@H]2CCCN2C1=O	3.1
CC(C)C[C@@H]1C(=O)N2CCC[C@@H]2C(=O)N(Cc2ccccc2)CC(=O)N[C@@H](Cc2ccccc2)C(=O)N[C@@H](C)C(=O)N[C@H](CC(C)C)C(=O)N1C	0.59
CCCN1CC(=O)N[C@H](CC(C)C)C(=O)N(C)[C@@H](CC(C)C)C(=O)N2CCC[C@@H]2C(=O)N[C@@H](CC(C)C)C(=O)N[C@@H](Cc2ccccc2)C(=O)N2CCC[C@@H]2C1=O	1.5
CC(C)C[C@@H]1C(=O)N2CCC[C@H]2C(=O)N(C)[C@H](CC(C)C)C(=O)N[C@@H](Cc2ccccc2)C(=O)N2CCC[C@H]2C(=O)N[C@@H](C)C(=O)N(C)[C@@H](CC(C)C)C(=O)N1C	4.4
CC(C)C[C@@H]1NC(=O)[C@H]2CCCN2C(=O)CN(Cc2ccccc2)C(=O)[C@H](CC(C)C)NC(=O)C[C@H](Cc2ccccc2)NC(=O)[C@H](Cc2ccccc2)NC1=O	1.1
CC(C)C[C@H]1NC(=O)[C@H](C)N(C)C(=O)[C@H]2CCCN2C(=O)[C@H](Cc2ccccc2)NC(=O)[C@@H](CC(C)C)NC(=O)[C@@H]2CCCN2C(=O)C[C@H](Cc2ccccc2)NC1=O	0.25
CC(C)C[C@H]1C(=O)N(C)[C@@H](CC(C)C)C(=O)N2CCC[C@H]2C(=O)N(Cc2ccccc2)CC(=O)N[C@@H](Cc2ccccc2)C(=O)N2CCC[C@H]2C(=O)N(C)[C@@H](C)C(=O)N1C	8.9
CC(C)C[C@@H]1NC(=O)[C@H](CC(C)C)N(C)C(=O)[C@@H](C)NC(=O)[C@@H]2CCCN2C(=O)[C@H](Cc2ccccc2)NC(=O)[C@H](CC(C)C)N(C)C(=O)[C@@H]2CCCN2C1=O	2.5
CCCN1CC(=O)N[C@@H](CC(C)C)C(=O)N[C@H](CC(C)C)C(=O)N2CCC[C@@H]2C(=O)N(C)[C@H](CC(C)C)C(=O)N[C@@H](Cc2ccccc2)C1=O	8.5
CC(C)C[C@@H]1C(=O)N[C@@H](Cc2ccccc2)C(=O)N2CCC[C@H]2C(=O)N(C)[C@@H](C)C(=O)N[C@H](CC(C)C)C(=O)N(C)[C@@H](CC(C)C)C(=O)N2CCC[C@H]2C(=O)N1C	1
CC(C)C[C@H]1NC(=O)[C@H](C)N(C)C(=O)[C@@H]2CCCN2C(=O)[C@H](Cc2ccccc2)NC(=O)[C@H](CC(C)C)N(C)C(=O)[C@H]2CCCN2C(=O)[C@H](CC(C)C)N(C)C1=O	3.7
CC(C)C[C@@H]1C(=O)N[C@H](CC(C)C)C(=O)N2CCC[C@@H]2C(=O)N(C)[C@H](CC(C)C)C(=O)N[C@@H](Cc2ccccc2)C(=O)N[C@@H](C)C(=O)N1C	6.3
CC(C)C[C@@H]1NC(=O)C[C@H](Cc2ccccc2)NC(=O)[C@H]2CCCN2C(=O)[C@H](Cc2ccccc2)NC(=O)[C@@H](CC(C)C)N(C)C(=O)[C@H]2CCCN2C(=O)[C@@H](CC(C)C)N(C)C1=O	4.1
CC(C)C[C@@H]1NC(=O)[C@@H](C)NC(=O)[C@H]2CCCN2C(=O)[C@H](Cc2ccccc2)NC(=O)[C@@H](CC(C)C)NC(=O)[C@@H]2CCCN2C(=O)[C@@H](CC(C)C)NC1=O	0.31
CC(C)C[C@@H]1NC(=O)[C@H](C)NC(=O)[C@H](Cc2ccccc2)NC(=O)CN(Cc2ccccc2)C(=O)[C@H]2CCCN2C(=O)[C@@H](CC(C)C)NC1=O	0.48
CC(C)C[C@@H]1C(=O)N2CCC[C@@H]2C(=O)N(C)[C@H](CC(C)C)C(=O)N[C@@H](Cc2ccccc2)C(=O)N2CCC[C@@H]2C(=O)N(C)[C@@H](C)C(=O)N(C)[C@H](CC(C)C)C(=O)N1C	0.93

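The data file gives no further conditions (lipid, pH, time, direction or concentration), and values from different papers need not be comparable. Other peptides of the study may be missing here. Peptides that the database sets to -10, its floor, are left out.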